# Results reported in patent US20130261173A1, “CYCLODEXTRIN-BASED POLYMERS FOR THERAPEUTIC DELIVERY” (CERULEAN PHARMA INC., priority 2009, published 2013).
# Test system: B16.F10 cells
# Experiment: Efficacy in a murine melanoma model (subcutaneous B16.F10 tumors)
# Type: in vivo, male C57BL/6 mice
# Conditions: 30 mg/kg IV, weekly schedule for 3 injections (study of 1.4, 2.3, 4.2, 5.2)
# Procedure: Tumor volume was calculated with a (width×width×length)/2 mm^3 formula.
compound,measurement,setting,value
"CC(=O)O[C@@]12CO[C@@H]1C[C@H](O)[C@@]1(C)C(=O)[C@H](O)C3=C(C)[C@@H](OC(=O)[C@H](O)[C@@H](NC(=O)OC(C)(C)C)c4ccccc4)C[C@@](O)([C@@H](OC(=O)c4ccccc4)[C@H]21)C3(C)C [Free docetaxel, docetaxel, reference compound]",Tumor growth inhibition (% TGI),,84%
same,Tumor growth inhibition (% TGI),listed as free docetaxel,84%
